# Data reported in PubChem BioAssay AID1458 (National Center for Advancing Translational Sciences (NCATS), 2008).
# Several values for one entry are separate records, joined by “and”; a condition that tells them apart may be missing. Identical values can stand only once. The entries are a selection whose mix differs from that of the whole data set. Results filed as inconclusive are left out. Activity calls are given as the source filed them. The call rests on the fitted dose curve; in most records, active means well fitted activation curve with a large enough effect; inconclusive means small, poorly fitted or top-dose-only effect; inactive means no such curve, though single readings can be large or run the other way.
# Assay: qHTS Assay for Enhancers of SMN2 Splice Variant Expression; further: % of control where 0% means no effect; nearly all actives have a fitted effect of over 55% in size
# Conditions: HEK293 SMN2-luciferase splicing reporter, luminescence, 30-36 h
# [1] = at 46.1 µM (top of the series) unless noted
compound,measurement,setting,value
CC(C)CC(=O)NC(Sc1ccc(Cl)cc1)C(Cl)(Cl)Cl (centres undefined),"activity change, positive = activation",[1],inactive: -4.17%
NCC[C@@H](N)CSP(=O)(O)O,"activity change, positive = activation",[1],inactive: -13.1% [at 9.22 µM]
Cc1c2c(nc3ccccc13)SC(C(Cl)Cl)C2 (centres undefined),"activity change, positive = activation",[1],inactive: 6.24%
Cc1cc(=O)[nH]c(N[N+](=O)[O-])n1,"activity change, positive = activation",[1],inactive: 6.51%
O=C(OC1CN2CCC1CC2)C12CC3CC(CC(C3)C1)C2 (centres undefined),"activity change, positive = activation",[1],inactive: -3.13%
NC(=O)Nc1cc([As](=O)(O)O)cc(I)c1O,"activity change, positive = activation",[1],inactive: -3.31% [at 9.22 µM]
COc1ccc2nc(NP(=O)(c3ccccc3)c3ccccc3)sc2c1,"activity change, positive = activation",[1],inactive: 11.7%
O=[As]c1ccc(S(=O)(=O)NCCO)cc1 (centres undefined),"activity change, positive = activation",[1],inactive: -7.43% [at 9.22 µM]
[N-]=[N+]=NCC(N)=O,"activity change, positive = activation",[1],inactive: -9.21% [at 9.22 µM]
O=[N+]([O-])c1cc([N+](=O)[O-])c(-c2ccn[nH]2)s1,"activity change, positive = activation",[1],inactive: 9.34%
CCN(CC)C(=S)SC(NC=O)C(Cl)(Cl)Cl (centres undefined),"activity change, positive = activation",[1],inactive: -14.1%
CC(C)NC(=O)NP(=O)(Oc1ccccc1)Oc1ccccc1,"activity change, positive = activation",[1],inactive: 11.7%
Cc1cc(SC(NC(=O)c2ccccc2)C(Cl)(Cl)Cl)nc(C(C)C)n1 (centres undefined),"activity change, positive = activation",[1],inactive: 6.33%
CN(N=O)C(=N)N[N+](=O)[O-],"activity change, positive = activation",[1],inactive: 8.53%
Cc1cc(SC(NC=O)C(Cl)(Cl)Cl)ncn1 (centres undefined),"activity change, positive = activation",[1],inactive: 2.27%
O=P(Nc1ccccn1)(c1cccc2ccccc12)c1cccc2ccccc12,"activity change, positive = activation",[1],inactive: -7.39%
COP1(=S)c2c(C)nn(CCC#N)c2N=C(c2ccc(F)cc2)N1C (centres undefined),"activity change, positive = activation",[1],inactive: 29.4%
O=C(O)[C@@H](O)c1ccc([As](=O)(O)O)cc1,"activity change, positive = activation",[1],inactive: -0.514% [at 9.22 µM]
O=C(COc1ccccc1)OC1CN2CCC1CC2 (centres undefined),"activity change, positive = activation",[1],inactive: 3.12%
CCC(C)N(CC(C)C)C(=S)SC(NC(C)=O)C(Cl)(Cl)Cl (centres undefined),"activity change, positive = activation",[1],inactive: -30.4%
CN(CCCl)Cc1cc(Cl)c(NC2=NCCN2)c(Cl)c1,"activity change, positive = activation",[1],inactive: -2.44% and inactive: 9.53%
CN(C(=O)Cc1ccc(Cl)c(Cl)c1)[C@@H]1CCCC[C@H]1N1CCCC1,"activity change, positive = activation",[1],inactive: -9.17% and inactive: -52%
CC(C)/C=N\N=C(\N)N[N+](=O)[O-],"activity change, positive = activation",[1],inactive: -7.74%
CC1CCC(C(C)C)C(OP(=O)(Nc2ccccn2)c2ccccc2)C1 (centres undefined),"activity change, positive = activation",[1],inactive: -38.8%
O=P1(Nc2ncccn2)COc2ccccc2OC1,"activity change, positive = activation",[1],inactive: 15.6%
Cc1ccc(OCC(=O)OC2CN3CCC2CC3)cc1 (centres undefined),"activity change, positive = activation",[1],inactive: -3.32%
O=P(Nc1nccs1)(c1ccccc1)c1nc2ccccc2s1 (centres undefined),"activity change, positive = activation",[1],inactive: 9.21%
O=P(Nc1nccs1)(Oc1ccccc1)Oc1ccccc1,"activity change, positive = activation",[1],inactive: -22.8%
CCOP1(=S)c2c(C)nn(CCC#N)c2N=C(c2ccccc2F)N1C (centres undefined),"activity change, positive = activation",[1],inactive: 4.68%
O=[As](O)(O)c1ccc([As](=O)(O)O)cc1,"activity change, positive = activation",[1],inactive: 4.4% [at 9.22 µM]
O=[N+]([O-])CC(O)c1ccc([N+](=O)[O-])cc1 (centres undefined),"activity change, positive = activation",[1],inactive: 0.777%
NC(=O)Nc1ccc([As](=O)(O)O)cc1,"activity change, positive = activation",at 20.6 µM (top of the series),inactive: -2.25%
same,"activity change, positive = activation",at 46.1 µM (top of the series),inactive: 9.24%
CN(C(=O)Cc1ccccc1)[C@@H]1CC[C@]2(CCCO2)C[C@H]1N1CCCC1,"activity change, positive = activation",[1],inactive: 2.43%
CCOP1(=S)c2c(C)nn(CCC#N)c2N=C(c2ccc(F)cc2)N1C (centres undefined),"activity change, positive = activation",[1],inactive: 3.12%
O=[N+]([O-])c1ccc2c(c1)nnn2O,"activity change, positive = activation",[1],inactive: 4.58%
CN(C(=O)Cc1ccc(Cl)c(Cl)c1)[C@@H]1CC[C@]2(CCCO2)C[C@H]1N1CCCC1,"activity change, positive = activation",[1],inactive: -4.51% and inactive: -27.5%
COc1cc(C(=O)NCC2(N3CCOCC3)CCCCC2)cc(Cl)c1OC(C)C,"activity change, positive = activation",[1],inactive: 0.103%
Cc1cccc(OCC(=O)OC2CN3CCC2CC3)c1 (centres undefined),"activity change, positive = activation",[1],inactive: -5.14%
Cc1ccc(NCCc2c([N+](=O)[O-])cc([N+](=O)[O-])cc2[N+](=O)[O-])cc1,"activity change, positive = activation",[1],inactive: -19.2%
O=C(CC(=O)c1ccccc1)O[C@H]1CN2CCC1CC2,"activity change, positive = activation",[1],inactive: 2.73% [at 9.22 µM]
NS(=O)(=O)Cc1ccc([As](=O)(O)O)cc1,"activity change, positive = activation",[1],inactive: 0.212% [at 9.22 µM]
CCOP(=O)(Nc1cccc2ccccc12)OCC,"activity change, positive = activation",[1],inactive: 23.1%
COc1cc(C2NCCC3(OCCO3)C2(C)C)cc(OC)c1OC (centres undefined),"activity change, positive = activation",[1],inactive: 2.33%
